Reference: PubChem BioAssay AID1850 (Southern Research Specialized Biocontainment Screening …, 2009)

These compounds were tested on Salmonella Typhi PhoP-promoter GFP reporter, fluorescence, 4 h (assay: Inhibition of PhoP regulon, Salmonella typhi GFP reporter cells, confirmation, 4 h (AID 1850)).
For `O=C(N/N=C/c1ccc([N+](=O)[O-])o1)C1CC1`, the IC50 was 36.6 µM. For `O=C(Nc1cccnc1)c1ccc([N+](=O)[O-])o1`, the IC50 was 73 µM. Work on `CCOC(=O)c1cn(CC)c2cc(N3CCN(C)CC3)c(F)cc2c1=O` yielded an IC50 of 106 µM. `O=C(NNC(=S)Nc1ccc(Cl)c(Cl)c1)c1ccccn1` gave an IC50 of 18.8 µM.
